Results reported in patent US9980943B2, “Methods of treating muscular dystrophy” (BOARD OF REGENTS OF THE NEVADA SYSTEM OF HIGHER EDUCATION, …, priority 2013, dated 2018).

System: α7 integrin (LacZ reporter in α7LacZ+/− myoblasts)
Assay: qHTS of the LOPAC library and MLSMR (online screen, α7LacZ+/− myoblasts)

COc1ccc(-c2c[nH]nc2-c2ccc(OC)cc2)cc1 [Compound 106]
Curve Description: Partial
